FGF22 binding: FGF22 (human) thermal shift binding | recombinant FGF22 thermal shift, SYPRO orange fluorescence; percent of sucrose octasulfate shift, DMSO zero | activity (Tm shift, normalised), % at 9.99 µM | Q9HCT0 | actives 1.5% (n = 340,000);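 active = mean Tm shift, scaled 0 neutral to 100 positive control, at about 1.3% or above, every replicate too, limit read from the data; inconclusive = no clear call, values can overlap the other calls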
UUG fidelity: alters start codon recognition fidelity in yeast. 350,000 tested, 0.13% active. activity score, % at 18.7 µM. S. cerevisiae UUG-firefly luciferase reporter, luminescence/redox ratio;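 active = replicate mean at a twofold rise or more, about +100% in these data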;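 also: firefly luciferase made from a UUG start codon reports start codon fidelity; reporter light over untreated wells divided by growth signal over untreated wells; some hits fall short of that in this replicate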
PDI turbidity: inhibitors of human protein disulfide isomerase | PDI insulin aggregation turbidity, A650, 90 min | inhibition, % at 10 µM | actives 0.052% (n = 350,000);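 active = mean inhibition across replicates of 30% or more, whatever share of single replicates reach that level; inconclusive = mean inhibition below 30% while every single replicate reaches 30%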
ERp5 inh: blocks human ERp5 reductase activity on insulin; ERp5 insulin aggregation, absorbance 650 nm, 90 min; Q15084; actives 0.05% (n = 350,000); inhibition, % at 9.99 µM; AID 651711;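 active = mean replicate inhibition above about 25%, with every replicate also reaching it, limit read from the data, passing the limit was not always enough; inconclusive = only one of those two criteria met; inactive = neither criterion met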
PglD DTNB: blocks C. jejuni PglD acetyltransferase activity; purified PglD enzyme, DTNB colorimetric CoA detection; inhibition, % at 12.5 µM; actives 0.098% (n = 360,000); AID 602405; in the data active = inhibition above about 16%, passing the limit was not always enough; inconclusive = no clear call, values can overlap the other calls
ARNT-TACC3 inh: disrupts binding between human ARNT and TACC3. Q9Y6A5. AlphaScreen His-ARNT PAS-B/GST-TACC3 binding, luminescence; TACC3 fragment carries E629A point mutation. inhibition, % at 9.99 µM. actives 0.66% (n = 390,000);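 active = mean inhibition of replicates at least 50% and at least half of replicates each reaching 50%; inconclusive = half or more replicates reach 50% but mean below 50%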
Hits are given with their value; . = inactive; ? = inconclusive; / = not tested or not shown. Shown are actives, neighbours in structure and some others; about 1.9% of the full set was active somewhere.

SMILES | FGF22 binding | UUG fidelity | PDI turbidity | ERp5 inh | PglD DTNB | ARNT-TACC3 inh
O=C(C[C@H]1C[C@H](C(=O)N2CCCCC2)[C@@]2(CCc3ccccc3)c3[nH]c4ccc(Cl)cc4c3CCN2C1=O)NCc1cccc(C(F)(F)F)c1 | 34 | . | . | . | . | .
O=C(CC1C[C@H](C(=O)N2CCCCC2)[C@@]2(CCc3ccccc3)c3[nH]c4ccccc4c3CCN2C1=O)NCc1cccc(C(F)(F)F)c1 (stereo not given in full) | . | . | . | . | . | .
CCCC#Cc1cnc2c(c1)C(=O)N([C@@H](C)CO)C[C@@H](C)[C@H](CN(C)S(=O)(=O)c1cccc(OC)c1)O2 | . | / | / | . | . | .
COc1ccc(CC(=O)Nc2ncc([N+](=O)[O-])s2)cc1OC | . | . | . | . | . | 18
COc1ccc(CC(=O)Nc2nccs2)cc1OC | / | / | . | / | / | .
Nc1ccc(CCn2ccnc2)cc1 | . | . | . | . | . | 63
CCN1/C(=C\C=C(C(C)=O)C(C)=O)Sc2ccccc21 | . | / | . | . | / | .
CCN1/C(=C\C(=S)Nc2ccccc2)Sc2ccccc21 | 44 | . | . | . | . | .
OCc1c(Cl)nc2ccccn12 | 43 | / | . | . | / | .
CN(C)N1C(N)=C(C#N)C(c2ccccc2)C2=C1CCCC2=O (stereo not given) | 43 | / | . | . | / | .
CN(C)N1C(N)=C(C#N)C(c2ccc(F)cc2)C2=C1CCCC2=O (stereo not given) | . | . | . | . | . | .
Cc1ccc(S(=O)(=O)NC[C@H]2CC[C@H]3[C@H](CN3Cc3cc(F)ccc3F)O2)cc1 | / | / | / | . | / | /
Cc1ccc(Cc2cnc(N3C(=N)SC(C)C3=O)s2)cc1 (stereo not given) | 43 | / | . | . | / | .
COc1ccc(-c2ccc([C@H]3[C@@H](CO)N4C(=O)CNC[C@H]34)cc2)cc1 | / | / | / | . | / | /
Cn1cc(Cl)c(C(=O)NC(=S)Nc2sc3c(c2C#N)CCCCC3)n1 | 52 | / | . | . | / | .
Cc1noc(C)c1S(=O)(=O)N(C)C[C@@H]1Oc2ccc(NS(=O)(=O)c3ccccc3)cc2C(=O)N([C@H](C)CO)C[C@@H]1C | . | . | / | . | . | .
O=C(Nc1ccccc1N1CCCC1)c1cc(Cl)ccc1Cl | 45 | / | ? | . | / | .
O=C(Nc1ccccc1N1CCCC1)c1ccc([N+](=O)[O-])cc1Cl | 44 | / | . | . | / | .
CN1CCN(c2ccccc2NC(=O)c2cccc([N+](=O)[O-])c2)CC1 | 44 | . | . | . | . | .
O=C(Nc1ccccc1N1CCCC1)c1ccc(Cl)cc1Cl | . | / | . | . | / | .
O=C(C[C@@H]1CC[C@@H](NC(=O)C2CCC2)[C@@H](CO)O1)NCCCN1CCOCC1 | . | . | / | . | . | .
C[C@@H]1CN([C@H](C)CO)S(=O)(=O)c2ccc(C#C[C@@H](C)O)cc2O[C@@H]1CN(C)Cc1ccccc1 | . | . | / | . | . | .
O=C1NC(c2ccc(-c3ccccc3[N+](=O)[O-])o2)C(C(=O)c2ccccc2)C(O)(C(F)(F)F)N1 (stereo not given) | 43 | / | . | . | / | .
CC(=O)N1[C@H](C(=O)NCc2ccccc2F)[C@@H](CO)[C@@H]2Cn3c(cccc3=O)[C@@H]21 | . | / | / | . | . | .
Cc1ccc(S(=O)(=O)N(C)C[C@H]2Oc3ccc(NC(=O)Nc4ccc(F)cc4)cc3C(=O)N([C@H](C)CO)C[C@@H]2C)cc1 | . | . | / | . | . | .
SMILES | FGF22 binding | UUG fidelity | PDI turbidity | ERp5 inh | PglD DTNB | ARNT-TACC3 inh
O=C(OCC1OC(n2ccc(=O)[nH]c2=O)C2OC12)c1ccccc1 (stereo not given) | 43 | . | . | . | . | .
Cc1noc(C)c1NC(=O)N(C)C[C@@H]1Oc2ccc(NC(=O)CCN3CCOCC3)cc2C(=O)N([C@H](C)CO)C[C@@H]1C | . | . | / | . | . | .
O=C(NCC[C@@H]1CC[C@@H](NC(=O)C2CC2)[C@@H](CO)O1)c1cnccn1 | . | . | / | . | . | .
NC(=O)NC(=O)COC(=O)CC12CC3CC(CC(C3)C1)C2 | 44 | / | . | . | / | .
O=C1CCCC2=C1C(c1ccccc1)NC(=S)N2 (stereo not given) | . | / | . | . | / | .
Cc1ccc(C2NC(=S)NC3=C2C(=O)CCC3)cc1 (stereo not given) | 43 | / | . | . | / | .
Cc1c(NC(=O)COC(=O)C2(c3ccc(F)cc3)CCCC2)c(=O)n(-c2ccccc2)n1C | 43 | / | . | . | / | .
C[C@@H]1CCCCO[C@@H](CN(C)C(=O)Cc2ccccc2)[C@H](C)CN([C@@H](C)CO)C(=O)c2cc(NS(=O)(=O)c3ccccc3)ccc2O1 | . | . | / | . | . | .
CN(C)CCCNC(=S)Nc1ccc(Oc2ccccc2)cc1 | . | / | . | . | / | .
OCCCNC(=S)Nc1ccc(Oc2ccccc2)cc1 | 44 | . | . | . | . | /
CCCC#Cc1ccc2c(c1)O[C@@H](CN(C)Cc1ccc3c(c1)OCO3)[C@@H](C)CN([C@@H](C)CO)S2(=O)=O | . | . | / | . | . | .
NC(=S)N/N=C/c1cc([N+](=O)[O-])ccc1Cl | . | . | . | . | . | .
Nc1nnnn1CC(=O)N/N=C/c1cc([N+](=O)[O-])ccc1Cl | 43 | / | . | . | / | .
O=C(Nc1cc(F)ccc1F)N[C@@H]1CC[C@H](CCn2cc(C3CC3)nn2)O[C@@H]1CO | . | / | / | . | . | .
Cc1cc(Cl)c(C)c(S(=O)(=O)Oc2ccccc2NC(=O)CCC(=O)O)c1Cl | . | . | . | . | . | 28
CN1CCN(C(=O)CCN2C(=O)S/C(=C/c3ccc(Cl)cc3)C2=O)CC1 | 43 | / | . | . | / | /
COc1ccc(C(N)c2nccc3cc(OC)c(OC)cc23)cc1OC (stereo not given) | / | . | . | / | . | 72
COc1ccc(N=Cc2c(C)[nH][nH]c2=O)cc1 | 43 | . | . | . | . | .
CS(=O)(=O)c1ccc2nc(NC(=O)CCN3C(=O)c4ccccc4C3=O)sc2c1 | 43 | / | . | . | / | .
O=C(Cn1nnc2c(cnn2-c2ccc(F)cc2)c1=O)Nc1ccccc1C(F)(F)F | 43 | / | . | . | / | .
COCCNC(=O)COc1ccc(C)cc1C(=O)c1cc(C#N)c(=O)n(C2CC2)c1 | 44 | / | . | . | / | .
N#Cc1cc(C(=O)c2cc(Br)ccc2O)cn(C2CC2)c1=O | / | . | . | / | . | .
COc1ccc(NC(=S)NCc2ccc3c(c2)OCO3)cc1 | 43 | . | . | . | . | .
CC(C)c1ccc(NC(=S)NCc2ccc3c(c2)OCO3)cc1 | . | / | . | . | / | .
CO[C@H]1CN(C)C(=O)c2cc(NC(=O)Nc3cc(F)ccc3F)ccc2OC[C@@H](C)N(C(=O)c2ccccn2)C[C@H]1C | / | . | / | . | . | .
C[C@H](O)C#Cc1cnc2c(c1)C(=O)N([C@H](C)CO)C[C@H](C)[C@@H](CN(C)Cc1ccccn1)O2 | . | . | / | . | . | .
